Experimental findings from patent US12478617B2, “Lipidated peptide inhibitors of interleukin-23 receptor” (JANSSEN BIOTECH, INC., priority 2021, dated 2025) are described below.

pIC50: −log10 of the molar value. Read-outs that look alike come from different tables or passages of the source.

For orientation: pIC50 means the IC50 on a negative log10 scale, so that one unit is a factor of ten.

The target of experiment [1] is T1, IL-23R (Homo sapiens, UniProt Q5VWK5).
T1 construct: HEK293 cells containing IL-23R, IL-12RP31 and a firefly luciferase reporter gene driven by a STAT-inducible promoter (Promega); host or cells: HEK293
T1 sequence (Q5VWK5 24-629): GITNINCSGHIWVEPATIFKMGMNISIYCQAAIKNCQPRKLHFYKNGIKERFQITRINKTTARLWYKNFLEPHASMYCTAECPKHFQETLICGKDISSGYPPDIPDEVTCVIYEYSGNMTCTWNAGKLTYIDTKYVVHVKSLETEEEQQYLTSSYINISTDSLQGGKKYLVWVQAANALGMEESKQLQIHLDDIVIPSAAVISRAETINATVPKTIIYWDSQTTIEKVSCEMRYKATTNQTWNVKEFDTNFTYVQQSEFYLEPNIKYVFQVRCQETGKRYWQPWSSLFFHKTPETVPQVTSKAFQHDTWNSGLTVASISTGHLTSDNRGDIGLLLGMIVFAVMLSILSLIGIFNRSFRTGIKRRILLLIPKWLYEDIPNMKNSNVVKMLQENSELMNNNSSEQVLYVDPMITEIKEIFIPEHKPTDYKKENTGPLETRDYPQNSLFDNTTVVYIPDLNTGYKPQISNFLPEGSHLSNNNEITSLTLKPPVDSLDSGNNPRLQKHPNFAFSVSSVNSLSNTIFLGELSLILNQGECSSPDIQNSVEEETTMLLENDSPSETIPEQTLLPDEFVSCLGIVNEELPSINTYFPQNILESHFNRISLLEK
Put plainly: IL23R Reporter Assay. Format: cell-based. Particulars: HEK293 cells containing IL-23R, IL-12Rβ1 and STAT-inducible firefly luciferase reporter, 10 ng/mL IL-23 (EC90), 5 h at 37° C.

For experiment [2], the target named is T2, peripheral blood mononuclear cells (PBMCs) (Homo sapiens, UniProt Q5VWK5).
T2 sequence (Q5VWK5 24-629): T1 sequence (Q5VWK5 24-629)
Put plainly: PBMC pSTAT3 assay. It is filed as cell-based. From the text: IL-23 binding to IL-23 receptors results in the activation of the Signal Transducer and Activator of Transcription 3 (STAT3) by phosphorylation and downstream signaling events. Accordingly. the ability of the inhibitors described herein to block IL-23 action can be assessed by monitoring the status of STAT3 activation in response to IL-23. This may be accomplished in reporter cell assays or in intact cells such as peripheral blood mononuclear cells (PBMCs).
Cryopreserved peripheral blood mononuclear cells (PBMCs) from healthy donors were thawed and washed twice in ImmunoCult-XF T cell expansion medium (XF-TCEM) supplemented with CTL anti-aggregate wash. The cells were counted, resuspended at 2×10^5 cells per mL XF-TCEM supplemented with penicillin/streptomycin and 100 ng/mL IL-1β (BioLegend, 579404), and cultured in tissue culture flasks coated with anti-CD3 (eBioscience, 16-0037-85 or BD Pharmingen, 555329) at 37° C. in 5% CO2. On day 4 of culture, PBMCs were collected, washed twice in RPMI-1640 supplemented with 0.1% BSA (RPMI-BSA), and incubated in RPMI-BSA in upright tissue culture flasks for 4 hours at 37° C. in 5% C02. Following this ‘starvation,’ a total of 6×10^4 cells in 30 μL RPMI-BSA was transferred into each well of a 384-well plate pre-spotted with peptide in DMSO. The cells were incubated for 30 minutes prior to the addition of IL-23 at a final concentration of 5 ng/mL. The cells were stimulated withcytokine for 30 minutes at 37° C. in 5% CO2, transferred onto ice for 10 minutes, and lysed. Cell lysates were stored at −80° C. until phosphorylated STAT3 was measured using the phospho-STAT panel kit (Meso Scale Discovery, K15202D).

[3] abbreviates: read-out: PBMC pSTAT3 IC50; PBMCs from healthy donors, anti-CD3/IL-1β cultured; peptide 30 min, then IL-23 5 ng/mL for 30 min; phosphorylated STAT3 (Meso Scale Discovery).

Regarding `CC(=O)NCCCC[C@@H]1NC(=O)[C@H](Cc2c[nH]c3c(C)cccc23)NC(=O)[C@H]([C@@H](C)O)NC(=O)[C@H](CC(N)=O)NC(=O)[C@@H](NC(=O)[C@@H](CCCCNC(=O)COCCOCCNC(=O)COCCOCCNC(=O)CC[C@H](NC(=O)CCCCCCCCCCCCCCCCC(=O)O)C(=O)O)NC(C)=O)C(C)(C)SSC(C)(C)[C@@H](C(=O)N[C@@H](Cc2ccc(OCCN)cc2)C(=O)N[C@@H](Cc2ccc3ccccc3c2)C(=O)NC2(C(=O)N[C@@H](CCCCNC(C)=O)C(=O)N[C@@H](CC(N)=O)C(=O)N[C@@H](Cc3cccnc3)C(=O)N(C)CC(N)=O)CCOCC2)NC1=O` [Example 5, MeCO-k(PEG2PEG2gEC180H)-Pen*-N-T-7MeW-K(Ac)-Pen*-AEF-2Nal-THP-K(Ac)-N-3Pva-Sar-CONH2 (*Pen-Pen form disulfide bond)], the pIC50 in experiment [1] (read-out: IC50) was 10.68; in experiment [2] (PBMCs from healthy donors, anti-CD3/IL-1β cultured; peptide 30 min, then IL-23 5 ng/mL for 30 min; phosphorylated STAT3 (Meso Scale Discovery); read-out: PBMC pSTAT3 IC50), 9.80.

In the case of “HOC18gEPEG2PEG2-r-Pen*-N-T-7MeW-K(Ac)-Pen*-AEF-2Nal-THP-K(PEG2PEG2gEC180H)-N-3Pya-Sar-CONH2(*Pen-Pen form disulfide bond) [Example 12]”, the negative logarithm of the IC50 (pIC50) is 9.54 in experiment [1] and 8.30 in experiment [2] (setting [3]).

As for “HOC18gEPEG2PEG2-r-Pen*-N-T-7MeW-K(Ac)-Pen*-AEF-2Nal-THP—K(Ac)-N-3Pva-Sar-CONH2(*Pen-Pen form disulfide bond) [Example 11]”, the figures for the pIC50 in experiment [1] and in experiment [2] (setting [3]) were 10.36 and 8.89, respectively.

“MeCO-Pen*-N-T-7MeW-K(Ac)-Pen*-AEF-2Nal-THP-K(PEG2PEG2gEC180H)-N-3Pva-Sar-CONH2 (*Pen-Pen form disulfide bond) [Example 4]”: the pIC50 in experiment [1] was 10.18; in experiment [2] (setting [3]) it was 8.92.

Take “MeCO-k(PEG2PEG2SP6gEC180H)-Pen*-N-T-7MeW-K(Ac)-Pen*-AEF-2Nal-THP—K(Ac)-N-3Pva-Sar-CONH2(*Pen-Pen form disulfide bond) [Example 7]”: the results for the pIC50 in experiment [1] and in experiment [2] (setting [3]) were 10.62 and 9.38, respectively.

As for “MeCO-k(PEG2PEG2gE(c)C18OH)-Pen*-N-T-7MeW-K(Ac)-Pen*-AEF-2Nal-THP-K(Ac)-N-3Pya-Sar-CONH2 [Example 16]”, the values for the pIC50 in experiment [1] and in experiment [2] (setting [3]) were 10.85 and 9.74, respectively.

As to “MeCO-k(PEG2PEG2gEC180H)-Pen*-N-T-7MeW-K(Ac)-Pen*-AEF-2Nal-THP-K(Ac)-N-3Pva-N(4AmBenzyl)Gly-CONH2(*Pen-Pen form disulfide bond [Example 13]”, the pIC50 in experiment [1] is 10.19; in experiment [2] (setting [3]) it was 9.57.

“MeCO-k(PEG2PEG2gEDab(mXOH)2)-Pen*-N-T-7MeW-K(Ac)-Pen*-AEF-2Nal-THP—K(Ac)-N-3Pva-Sar-CONH2(*Pen-Pen form disulfide bond) [Example 15]”: the values for the pIC50 in experiment [1] and in experiment [2] (setting [3]) were 10.27 and 9.38, respectively.

Consider “MeCO-k(PEG2PEG22EC160H)-Pen*-N-T-7MeW-K(Ac)-Pen*-AEF-2Nal-THP-K(gEC16)-N-3Pva-Sar-CONH2(*Pen-Pen form disulfide bond) [Example 10]”, for which the pIC50 was 8.73 in experiment [1] and 8.32 in experiment [2] (setting [3]).

As to “MeCO-k(PEG2PEG22EmXOH)-Pen*-N-T-7MeW-K(Ac)-Pen*-AEF-2Nal-THP-K(PEG2PEG2gEmXOH)-N-3Pva-Sar-CONH2(*Pen-Pen form disulfide bond) [Example 9]”, the pIC50 is 10.46 in experiment [1] and 9.64 in experiment [2] (setting [3]).

Consider “MeCO-r-Pen*-N-T-7MeW-K(Ac)-Pen*-AEF(PEG2PEG2gEC180H)-2Nal-THP—K(Ac)-N-3Pva-Sar-CONH2 (*Pen-Pen form disulfide bond) [Example 6]”, for which the figures for the pIC50 in experiment [1] and in experiment [2] (setting [3]) were 10.26 and 9.15, respectively.

“MeCO-r-Pen*-N-T-7MeW-K(Ac)-Pen*-AEF-2Nal-THP-E-N-3Pva-NMeK(PEG2PEG2gEC180H)-CONH2 (*Pen-Pen form disulfide bond) [Example 3]”: the negative-log IC50 (pIC50) in experiment [1] was 10.64; in experiment [2] (setting [3]), 8.24.

On to “MeCO-r-Pen*-N-T-7MeW-K(Ac)-Pen*-AEF-2Nal-THP—K(Ac)-N— 3Pva-N(PEG2PEG2gEC180H)Glv-CONH2(*Pen-Pen form disulfide bond) [Example 14]”, for which the pIC50 in experiment [1] is 9.70; in experiment [2] (setting [3]) it was 9.11.
